Our source for the Ki and IC50 values is patent publication US9040534B2 (Janssen Pharmaceutica NV, priority 2013, dated 2015).

Chains of the proteins cited; added tags and fusions are not shown. Lines headed by an entry give the natural chain unless they say otherwise; changes in a name come on top.
UniProt Q99572: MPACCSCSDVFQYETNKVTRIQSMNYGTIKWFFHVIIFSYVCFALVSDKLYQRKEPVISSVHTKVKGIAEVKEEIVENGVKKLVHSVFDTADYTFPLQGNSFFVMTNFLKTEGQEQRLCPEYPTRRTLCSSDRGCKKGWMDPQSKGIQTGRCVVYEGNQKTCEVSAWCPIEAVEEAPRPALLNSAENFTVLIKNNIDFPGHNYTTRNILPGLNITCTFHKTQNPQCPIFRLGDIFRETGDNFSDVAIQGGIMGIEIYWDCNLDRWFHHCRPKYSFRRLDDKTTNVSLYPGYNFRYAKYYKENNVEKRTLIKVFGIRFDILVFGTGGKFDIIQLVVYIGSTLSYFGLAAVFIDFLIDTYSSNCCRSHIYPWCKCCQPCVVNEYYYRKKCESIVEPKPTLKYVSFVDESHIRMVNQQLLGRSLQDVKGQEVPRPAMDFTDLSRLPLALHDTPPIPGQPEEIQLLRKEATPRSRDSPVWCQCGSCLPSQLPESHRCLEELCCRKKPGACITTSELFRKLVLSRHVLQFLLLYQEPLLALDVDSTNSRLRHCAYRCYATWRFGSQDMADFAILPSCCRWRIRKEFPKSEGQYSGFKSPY
UniProt Q64663: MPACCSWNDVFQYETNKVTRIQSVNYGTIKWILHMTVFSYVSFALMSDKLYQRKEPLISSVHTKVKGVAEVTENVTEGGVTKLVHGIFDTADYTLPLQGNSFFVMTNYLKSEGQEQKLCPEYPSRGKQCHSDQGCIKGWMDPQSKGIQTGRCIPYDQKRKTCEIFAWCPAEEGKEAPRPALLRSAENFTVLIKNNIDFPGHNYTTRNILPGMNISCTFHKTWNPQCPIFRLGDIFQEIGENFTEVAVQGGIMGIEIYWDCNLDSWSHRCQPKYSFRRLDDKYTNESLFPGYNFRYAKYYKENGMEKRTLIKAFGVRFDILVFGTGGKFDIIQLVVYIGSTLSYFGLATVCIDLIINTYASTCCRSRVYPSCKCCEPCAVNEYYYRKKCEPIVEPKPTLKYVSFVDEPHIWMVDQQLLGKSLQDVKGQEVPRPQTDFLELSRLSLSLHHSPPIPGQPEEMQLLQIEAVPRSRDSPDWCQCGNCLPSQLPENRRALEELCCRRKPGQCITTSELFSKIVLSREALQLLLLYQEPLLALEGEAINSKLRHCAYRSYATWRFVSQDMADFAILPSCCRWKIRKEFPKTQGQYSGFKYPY

Experiment [1] deals with T1, P2X7 (Homo sapiens (Human), UniProt Q99572). Kind of experiment: Radioligand binding, human P2X7-1321N1 cell membranes, tritiated A-804598 tracer. To be noted: 1 hour at 4° C. The protocol:
(B) Radioligand binding: human or rat P2X7-1321N1 cells were collected and frozen @ −80° C. On the day of the experiment, cell membrane preparations were made according to standard published methods. […] The compound can be prepared as described in the literature. […] The assay was terminated by filtration (GF/B filters pre-soaked with 0.3% PEI) and washed with washing buffer (Tris-HCl 50 mM). The IC50 generated in the binding assay was corrected for tracer concentration and affinity of the tracer to derive at the affinity (Ki) of the test compounds.

In experiment [2] the target is T1, P2X7. The experiment can be described thus: Ca2+ flux (FLIPR) in 1321N1 cells expressing recombinant human P2X7 channel. To be noted: 250 μM BzATP. The experiment is classed as cell-based. How it is done: (§1) (A) Ca^2+ Flux: 1321N1 cells expressing the recombinant human, rat or mouse P2X7 channel was cultured in HyQ DME/(HyClone/Dulbecco's Modified Eagle Medium) high glucose supplemented with 10% Fetal Bovine Serum (FBS) and appropriate selection marker. Cells were seeded at a density of 25000 cells/well (96-well clear bottom black walled plates) in 100 μl volume/well. On the day of the experiment, cell plates were washed with assay buffer, containing (in mM): 130 NaCl, 2 KCl, 1 CaCl2, 1 MgCl2, 10 HEPES, 5 glucose; pH 7.40 and 300 mOs. After the wash, cells were loaded with the Calcium-4 dye (Molecular Device) and incubated in the dark for 60 minutes. Test compounds were prepared at 250× the test concentration in neat DMSO. Intermediate 96-well compound plates were prepared by transferring 1.2 μL of the compound into 300 μL of assay buffer. A further 3× dilution occurred when transferring 50 μL/well of the compound plate to 100 μL/well in the cell plate. Cells were incubated with test compounds and dye for 30 minutes. […] The fluorescence change was measured 180 seconds after adding the agonist.
Background: A change in cytosolic calcium serves as a functional read-out for many receptors and channels.

The target in experiment [3] is T2, rat P2X7 (Rattus norvegicus (Rat), UniProt Q64663). The experiment can be described thus: Radioligand binding, rat P2X7-1321N1 cell membranes, tritiated A-804598 tracer. The note with it: 1 hour at 4° C. The protocol:
(B) Radioligand binding: human or rat P2X7-1321N1 cells were collected and frozen @ −80° C. On the day of the experiment, cell membrane preparations were made according to standard published methods. The total assay volume was 100 μl:10 μl compound (10×)+(b) 40 μl tracer (2.5×)+50 μl membrane (2×). The tracer used for the assay was tritiated A-804598. The compound can be prepared as described in the literature. (Donnelly-Roberts, D. Neuropharmacology 2009, 56 (1), 223-229.) Compounds, tracer and membranes were incubated for 1 hour @ 4° C. The assay was terminated by filtration (GF/B filters pre-soaked with 0.3% PEI) and washed with washing buffer (Tris-HCl 50 mM). The IC50 generated in the binding assay was corrected for tracer concentration and affinity of the tracer to derive at the affinity (Ki) of the test compounds.

Experiment [4] deals with T1, P2X7. The experiment can be described thus: P2X7 antagonism in human whole blood (LPS + Bz-ATP induced IL-1β release, ELISA). The class given is cell-based. To be noted: 1 mM Bz-ATP. How it is done:
Human blood was collected using a blood donor program. PBMCs were isolated from blood using a Ficoll density gradient technique. Briefly, blood was laid on Ficoll solution and centrifuged at RT for 20 minutes at 2000 rpm. The buffy layer (between red blood cells and plasma) was carefully collected by aspiration, washed with PBS and centrifuged again at 1500 rpm for 15 minutes. The resulting cell pellet was washed and plated on 96 well-plates for experiments. […] Lipopolysaccharide (LPS) (30 ng/ml) was added to each well and incubated for 1 hour. Test compounds were then added and incubated for 30 minutes. The P2X7 agonist, 2′(3′)-O-(4-benzoylbenzoyl) adenosine 5′-triphosphate (Bz-ATP) was then added at a final concentration of 0.5 mM (PBMC) or 1 mM (blood). Cells were incubated for an additional 1.5 hours. At that point, supernatant was collected and stored for IL-1β assay using manufacturer's protocol for enzyme-linked immunosorbent assay (ELISA). Data was expressed as percent control, where control is defined as the difference in IL-1β release in LPS+Bz-ATP samples and LPS only samples. Data was plotted as response (% control) versus concentration to generate IC50 values.

The target in experiment [5] is T2, rat P2X7. The experiment can be described thus: Ca2+ flux (FLIPR) in 1321N1 cells expressing recombinant rat P2X7 channel. The experiment is classed as cell-based. To be noted: 250 μM BzATP. How it is done: as §1

With `C[C@H]1Cn2c(nnc2-c2cnccn2)C(=O)N1Cc1cccc(C(F)(F)F)c1Cl` [Example 16, (6S)-7-[2-Chloro-3-(trifluoromethyl)benzyl]-6-methyl-3-pyrazin-2-yl-6,7-dihydro[1,2,4]triazolo[4,3-a]pyrazin-8(5H)-one], the Ki in experiment [1] was found to be 1.6 nM; in experiment [3], 1.1 nM. Also, the IC50 in experiment [2] is 0.7 nM; in experiment [4] it was 0.9 nM; in experiment [5], 64.6 nM.

As a reminder, the Ki is the dissociation constant of the complex between target and ligand, obtained from inhibition or displacement. A word on the IC50: it is the concentration at which inhibition is half-maximal.
